ChEMBL document CHEMBL1154650, “Synthesis and evaluation of D-gluco-pyranocyclopropyl amines as potential glucosidase inhibitors” (Bioorg Med Chem Lett, 2009)

Target: Lysosomal alpha-glucosidase (Homo sapiens, UniProt P10253)
Assay: Inhibition of human lysosomal alpha glucosidase

## OC[C@@H]1[C@@H](O)[C@H](O)[C@@H](O)CN1CCCCCOCC12CC3CC(CC(C3)C1)C2
  IC50: 400 nM
